{"source": "patent US12240882B2", "about": "“Fusion proteins comprising an engineered knottin peptide and uses thereof” (The Board of Trustees of the Leland Stanford Junior …, priority 2010, dated 2025)", "key": {"[1]": {"target": "αvβ3 integrin (Homo sapiens, UniProt P05106+P06756)", "experiment": "Yeast display binding of EETI 2.5D-Axl fusion to soluble αvβ3 integrin", "settings": "20, 50 or 100 nM αvβ3 integrin"}, "[2]": {"settings": "circular dichroism"}}, "data": [{"substance": "Wt Axl: first Ig domain of Axl, amino acids 19-132 (Genbank P30530), SEQ ID NO: 61 [reference compound]", "values": [{"measurement": "binding to soluble αvβ3 integrin", "setting": "[1]", "value": "no native affinity"}, {"measurement": "Tm (° C.)", "setting": "[2]", "value": "41 ± 0.6", "unit": "°C"}, {"measurement": "melting temperature (Tm)", "setting": "[2]", "value": 41, "unit": "°C"}]}]}
